Apparent affinities of Ab-95 variants for a coronavirus HR2 peptide

Data: MIT Lincoln Laboratory AlphaSeq set, Engelhart et al. 2022, doi:10.1038/s41597-022-01779-4, as distributed in FLAb.

Target: peptide PDVDLGDISGINAS, taken from heptad repeat 2 (HR2) of SARS-CoV-2 spike.

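Phage display of a naive human antibody library on the peptide gave the parent. In library AAYL52, one, two or three CDR residues were substituted; doubles and triples were drawn at random. Affinity was read by AlphaSeq, a pooled yeast mating assay with surface-displayed partners. Binding brings cells together so that they mate, and sequencing counts the barcode pairs among the diploids. Read counts were normalised to the haploid input and turned into Kd by a linear fit to BCL2-family pairs of known affinity, for each replicate. The assay was run in three technical replicates.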

Parent: Ab-95, a human scFv built as VH, the linker GGGGSGGGGSGGGGS, VL. Only the CDRs of the light chain vary.
VH: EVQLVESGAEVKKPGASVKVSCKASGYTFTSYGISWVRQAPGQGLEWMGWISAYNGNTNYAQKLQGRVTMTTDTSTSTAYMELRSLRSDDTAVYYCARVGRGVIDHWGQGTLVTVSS
VL: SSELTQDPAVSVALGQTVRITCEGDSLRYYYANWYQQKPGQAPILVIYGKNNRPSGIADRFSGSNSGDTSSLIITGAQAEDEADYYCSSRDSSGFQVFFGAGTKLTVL

The parent's light chain CDRs are EGDSLRYYYAN, GKNNRPS, SSRDSSGFQVF; each variant's own CDRs replace them letter for letter. Numbers give log10(Kd / nM), so 0 is 1 nM and 3 is 1 µM. Smaller is tighter. Replicates are averaged; those with no signal do not enter the mean. An entry "nd" has no value in the source: the pair was not observed among the diploids in that replicate. This suggests poor binding but is not conclusive. Parent in this assay: reference entry 2.31, copy in this library 2.25. Nonspecific signal, from three strains lacking the peptide, appeared in 28% of pairings of library AAYL52, centred on 3.91 (5% of these signals below 2.90); values are not corrected for it. Also given: how often the same scFv was detected with the empty control strains, with their mean in brackets.

CDR-L1	CDR-L2	CDR-L3	log10 Kd (nM) by replicate	mean, log10 nM	empty controls
EGDVLRYYIAN	GKNNRPY	SSRDSSGFQVF	4.66 / nd / nd	4.66	1/9 (2.57)
LGDSLIYYYAN	GKNNRPS	SSRDSSGTQVF	3.25 / 4.46 / 3.09	3.60	1/9 (3.09)
EGDSLRYYPAN	GKNNRPS	SSRDSSGFQVH	1.69 / 1.53 / 1.20	1.47	2/9 (5.16)
EGDCLRYYYAN	SKNNRPS	SSRDSSGFQQF	nd / 4.87 / nd	4.87	5/9 (3.84)
QGDSLRYYYAN	KKNNRPS	SSRDSSGFNVF	4.16 / nd / 3.85	4.01	5/9 (4.42)
EGDSLRYYYAN	GRNNQPS	SSRDSSGFQVH	3.40 / 3.38 / 2.37	3.05	1/9 (3.52)
EGDSLRYYYAN	KKNNRPQ	VSRDSSGFQVF	4.81 / nd / 2.98	3.90	3/9 (4.00)
EGDSLRYYYHN	GKNNRPS	SSRDFSGFNVF	nd / 3.14 / 3.65	3.39	2/9 (3.06)
EGDSLRDYYAN	GKNNRPS	SSRDSSGFANF	2.15 / 2.69 / 1.34	2.06	1/9 (3.04)
EGDSLDYYYQN	GKNNRPS	SSRDMSGFQVF	4.44 / nd / 1.97	3.21	0/9
EGDSLRYYQAN	GKNNRVS	SSRDSEGFQVF	2.48 / 2.23 / 2.34	2.35	3/9 (4.04)
EGDSLRWYYAN	GKRNRPS	SSRDSSGFQVF	nd / 4.19 / 4.01	4.10	3/9 (4.30)
NGDSHRYYYAN	GKNNRPS	SSRKSSGFQVF	3.50 / 2.83 / 3.95	3.43	3/9 (4.36)
EGDSLRCYYAN	CKNNRPF	SSRDSSGFQVF	nd / 3.73 / 3.49	3.61	3/9 (3.79)
EGDYLRYYYPN	GKNNRPS	SSRDSSGFQVF	2.97 / 2.85 / 1.86	2.56	3/9 (4.44)
EGDSLRYYYAN	GYNNEPS	SFRDSSGFQVF	nd / nd / nd	nd	2/9 (4.26)
EGDSKRYYYAN	GKNNKPS	SSRDSSIFQVF	4.79 / 5.68 / nd	5.24	3/9 (4.12)
EGDSLACYYAN	GKNNRPS	SSRDSGGFQVF	nd / nd / nd	nd	5/9 (4.05)
EGDSLRYYLAN	GKNNRPS	SSPDSSGFQVV	nd / nd / nd	nd	3/9 (3.60)
EGDSQRYDYAN	GKNNVPS	SSRDSSGFQVF	3.22 / 4.22 / 3.69	3.71	3/9 (4.84)
EGDSLRYVYAN	GVLNRPS	SSRDSSGFQVF	nd / nd / nd	nd	3/9 (4.23)
EGDSLRYYYAN	GKNNRPS	SSRWPSGFQVF	2.89 / 2.99 / 2.78	2.88	5/9 (4.25)
TGDSWRYYYAN	GKNNRPS	SSRDSSGNQVF	3.41 / 2.89 / 3.16	3.15	5/9 (3.73)
EGDDLRYYYAE	GKNNRPS	SSRDFSGFQVF	nd / nd / nd	nd	2/9 (3.73)
EGDALRYYYAN	GRNNRPE	SSRDSSGFQVF	2.19 / 1.76 / 1.41	1.79	0/9
EGDSLRYPYAN	GINNRPW	SSRDSSGFQVF	2.36 / 2.37 / 2.21	2.31	4/9 (3.99)
EECSLRYYYAN	GKNNRPS	SSRDSLGFQVF	5.00 / 3.72 / nd	4.36	2/9 (3.24)
EGDSLRYYYAC	GKNNRMS	SSRHSSGFQVF	3.81 / 3.46 / 3.71	3.66	6/9 (4.40)
EGDSLRYDYAN	GKNIRPS	SSRDSSGFQRF	1.71 / 1.65 / 1.15	1.50	2/9 (3.86)
EEDSLRYYYAN	GWNNRPK	SSRDSSGFQVF	3.04 / 2.78 / 2.83	2.88	4/9 (3.80)
EGDSLRYYYAN	GKINRDS	SSRDHSGFQVF	3.44 / 4.85 / nd	4.15	2/9 (3.85)
EGDSLRFYYAN	GKFNRPS	SSRDSSGFRVF	nd / 5.24 / nd	5.24	0/9
EGDSLRYYYAN	GDNNYPS	ESRDSSGFQVF	3.50 / 3.96 / 2.62	3.36	2/9 (4.01)
EGDSLRRGYAN	GKNNRDS	SSRDSSGFQVF	1.45 / 1.25 / 0.71	1.14	2/9 (3.48)
EGDSLRYYYVN	GKNNRPS	SSRDSSGFQVF	3.23 / 2.58 / 1.52	2.44	0/9
EMDSLRYYYAN	GKNNRPS	SSRDSSGFQVF	5.29 / 3.68 / 3.25	4.07	0/9
EGDSLRYYYAE	GKVNRPS	SSSDSSGFQVF	3.54 / nd / nd	3.54	1/9 (4.47)

Extract of 3 entries:

CDR-L1	CDR-L2	CDR-L3	log10 Kd (nM) by replicate	mean, log10 nM	empty controls
EGDSLRYYYAC	GKNNRMS	SSRHSSGFQVF	3.81 / 3.46 / 3.71	3.66	6/9 (4.40)
EGDSLRYYQAN	GKNNRVS	SSRDSEGFQVF	2.48 / 2.23 / 2.34	2.35	3/9 (4.04)
EGDSLRCYYAN	CKNNRPF	SSRDSSGFQVF	nd / 3.73 / 3.49	3.61	3/9 (3.79)